Measurements: the NIST ThermoML archive (doi:10.1016/j.jct.2005.01.004)

Legend:
[1] = 298.15 K; 101.33 kPa; Liquid
[2] = refractive index (Na D-line) (dimensionless); details: 298.15 K; 101.33 kPa; Liquid; Standard Abbe refractometry

mass density [1]: 763.95 ± 0.75 kg/m3 | refractive index [2]: 1.39668 ± 0.00075
SMILES: CCCCOCCCC [dibutyl ether]

Numbers after ± are expanded uncertainties.
